## Ab-14 heavy chain CDR variants: yeast mating affinities

The measurements come from Li et al. 2023 (doi:10.1038/s41467-023-39022-2) through the FLAb antibody collection.

Target peptide (SARS-CoV-2 spike, HR2 region): PDVDLGDISGINAS

Parent: Ab-14, a human scFv built as VH, a (GGGGS)3 linker, VL. Only the CDRs of the heavy chain vary.
VH: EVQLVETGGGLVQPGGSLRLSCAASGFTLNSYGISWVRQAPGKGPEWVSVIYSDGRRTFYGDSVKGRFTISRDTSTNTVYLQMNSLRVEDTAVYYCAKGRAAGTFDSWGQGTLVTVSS
VL: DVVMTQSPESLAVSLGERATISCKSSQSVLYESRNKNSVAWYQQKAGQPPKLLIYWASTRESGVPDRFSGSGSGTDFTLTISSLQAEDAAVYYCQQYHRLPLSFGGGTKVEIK

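The starting antibody came from a phage panning campaign against this peptide. The variants were designed computationally from a first round of random CDR variants and then made and measured. Group labels follow the data file (Ctrl: baseline library sampled from a position-specific scoring matrix, with some repeated check sequences; Rand: our label for a block that the file lists under HC and that is probably the random mutants of the ten best first-round binders; GP: Gaussian process model; GPLM: also part of the Gaussian process libraries; HC: hill climbing; Gen: genetic algorithm; Gibbs: Gibbs sampling; a sequence that several methods proposed may carry one label only). The assay is AlphaSeq: two haploid yeast populations carry antibody and antigen on their surface. After mating in shaken culture at 30 °C for 16 h, diploids were selected and their barcode pairs sequenced. A regression on co-assayed BCL2-family reference pairs converts the normalised counts of each replicate to an apparent Kd. There are six technical replicates.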

Variants are written as CDR1, CDR2 and CDR3 of the heavy chain (limits as in the source). Parent: GFTLNSYGIS, VIYSDGRRTFYGDSVK, GRAAGTFDS.
Variants here have at most six changes.
Numbers give log10(Kd / nM), so 0 is 1 nM and 3 is 1 µM. Smaller is tighter.
A mean of the replicates is given; it leaves out those without a signal.
"n.d." means that the variant was in the library but no mating with the target was seen in that replicate; the authors take this as a sign of poor binding, and no number exists.
The authors averaged sequences with at least three values out of six and counted those with two or fewer as poor binders.

CDR-H1,CDR-H2,CDR-H3,group,log10 Kd (nM) by replicate,mean log10 Kd (nM)
GFDLNSYGIS,VIYSDGRRTFYGDSVK,GREAGSFDS,GPLM_HC,1.06 0.81 0.87 0.62 0.84 1.40,0.93
KFTLNSYGIS,VIYSDGRRTFYGDSVK,GRAAGTFFS,Ctrl,n.d. n.d. n.d. n.d. n.d. n.d.,n.d.
GFSLNSYGIS,VIYSDGRRTFYADDVK,GEAAGTFDS,GPLM_Gen,0.14 -0.44 -0.29 -0.78 0.01 -0.64,-0.33
GFTLNEYGIS,VIYSDGRRTFYHDSVK,GRQAGTFDS,GP_HC,n.d. n.d. n.d. n.d. n.d. n.d.,n.d.
GFSLNEYGIS,VIYSDGLRTFYGDSVK,GRTAGTFDS,GP_Gen,n.d. -0.49 -0.49 -0.54 -0.63 -0.25,-0.48
DFTLQSYGIS,VIYSDGRRTFYGDSVK,GRAAGTFDS,Ctrl,n.d. n.d. n.d. 1.58 1.61 n.d.,1.59
GFELNSYGIS,VIYSDGRRTFYTDDVK,GREAGTFDS,GP_Gibbs,0.35 0.50 0.13 -0.24 -0.16 -0.05,0.09
GFWLNEYGIS,VIYSDGRRTFYTDSVK,GRAAGNFDS,Ctrl,n.d. n.d. n.d. n.d. n.d. n.d.,n.d.
GFTLNDYGIS,VIYSDGRRTFYIDSVK,GRAAGKFDS,GPLM_HC,n.d. n.d. n.d. n.d. n.d. n.d.,n.d.
GFTLNEYGIS,VIYSDGRRTFYSDSVK,GQGAGTFDS,GP_HC,1.73 1.28 1.65 1.49 1.76 1.72,1.60
GFTLNQYGIS,VIYSDGRRTFYSDSVK,GRAAGIFDS,Rand,n.d. n.d. n.d. n.d. n.d. n.d.,n.d.
GFTLNEYGIE,VIYSDGRRTFYGDSVK,GRTAVTFDQ,Rand,n.d. n.d. n.d. n.d. n.d. n.d.,n.d.
GFSLNEYGIS,VIYSDGRRTFYGDRVK,GRNAGTFDS,GP_Gen,-0.08 0.22 0.33 0.30 -0.15 0.44,0.18
GFSLNSYGIS,VIYSDGRRTFYADAVK,GEAAGTFDS,GPLM_Gen,0.18 1.33 -0.06 0.80 0.29 0.22,0.46
GFDLNSYGIS,VIYSDGKRTFYGDSVK,GKQAGTFDS,GP_Gibbs,0.45 -0.06 -0.48 0.07 -0.21 -0.24,-0.08
GFTLNTYGIS,VIYSDGRRTFYSDSVK,GTAAGTFDS,GP_HC,2.06 2.00 1.51 n.d. 1.27 1.23,1.61
GFTINQYGIS,VIYSDGRRTFYQDSVK,GRVAGTFDS,Ctrl,n.d. n.d. 0.33 n.d. n.d. 0.51,0.42
GFSLNSYGIS,VIYSDGRRTFYGDSVK,GRSAGTFDK,GP_Gibbs,1.36 1.89 1.75 n.d. 2.17 2.51,1.94
GFDLNSYGIS,VIYSDGRRTFYCDSVK,GQLAGTFDS,GP_HC,1.16 1.12 0.74 1.03 0.77 1.00,0.97
GFTLNSYGIS,VIYSDGQRTFYGDSVK,GQTAGTFDV,GP_Gibbs,n.d. 0.51 0.06 0.62 0.37 n.d.,0.39
GFTLVSYGIS,VIYSDGRRTFYGDSVK,GRAAGTALS,Rand,n.d. n.d. n.d. n.d. n.d. n.d.,n.d.
GFLLNSYGMS,VIYADGRRTFYGDSVK,GRAAGTKKS,Rand,n.d. n.d. n.d. n.d. n.d. n.d.,n.d.
GFELNSYGIS,VIYSDGRRTFYSDHVK,GRTAGTFDS,GP_Gibbs,1.11 1.41 0.97 2.31 2.57 1.30,1.61
MFSLNDYGIS,VIYSDGRRTFYGDSVK,GRTAGTFDS,GPLM_Gen,0.65 1.04 0.71 0.34 0.46 1.36,0.76
GFWRNSYGIS,VIYSDGRRTFYSDSVK,GRAVGTPDS,Ctrl,2.97 n.d. n.d. n.d. n.d. 3.21,3.09
GFTLNSYGIS,VIYSDGRRTSYHDSVK,GNAAGTGDS,Ctrl,0.09 -0.21 0.13 -0.22 0.18 0.03,0.00
GFTLNSYGIS,VIYSDGRRTFYGDSVK,GEAAGTFDL,Ctrl+GPLM_Gibbs,n.d. n.d. 1.45 n.d. 2.03 1.90; n.d. n.d. 0.61 1.52 0.49 n.d.,1.33
MFELNSYGIS,VIYSDGRRTFYGDSVK,GQEAGTFDS,GP_Gibbs,n.d. n.d. 1.90 n.d. n.d. n.d.,1.90
GFGLESYGIS,VIYSDGRRTFYEDSVK,GTAAGTFDS,Ctrl,0.38 0.61 0.57 0.28 0.13 0.71,0.45
GEALNSYGIS,VIYSDGRRTFYGDSVK,GRHAGTFDS,Ctrl,n.d. n.d. n.d. n.d. n.d. n.d.,n.d.
GFTLNDYGIS,VIYSDGRRTFYDDSVK,GRAAGTFSS,GP_HC,n.d. n.d. n.d. n.d. n.d. n.d.,n.d.
GFSLNSYGIS,VIYSDGRRTFYADSVK,GRTAGTFDW,GPLM_Gen,0.79 1.40 1.01 0.56 1.20 0.83,0.97
GFTLDSYGIS,VIYSDGRRTFYADDVK,GRAAGTFDK,GP_Gibbs,1.39 0.87 1.20 1.27 1.35 1.20,1.21
GFTLNSYGIS,VIYSDGRRTFYADSVK,GQEAGTFDL,GP_Gibbs,n.d. n.d. n.d. n.d. n.d. n.d.,n.d.
GFDLNSYGIS,VIYSDGRRTFYADSVK,GKAAGTFDS,GPLM_Gen,n.d. n.d. n.d. 1.22 0.70 2.19,1.37

Top 5 of the variants detected in all replicates, tightest first:

| CDR-H1 | CDR-H2 | CDR-H3 | group | log10 Kd (nM) by replicate | mean log10 Kd (nM) |
|---|---|---|---|---|---|
| GFSLNSYGIS | VIYSDGRRTFYADDVK | GEAAGTFDS | GPLM_Gen | 0.14 -0.44 -0.29 -0.78 0.01 -0.64 | -0.33 |
| GFDLNSYGIS | VIYSDGKRTFYGDSVK | GKQAGTFDS | GP_Gibbs | 0.45 -0.06 -0.48 0.07 -0.21 -0.24 | -0.08 |
| GFTLNSYGIS | VIYSDGRRTSYHDSVK | GNAAGTGDS | Ctrl | 0.09 -0.21 0.13 -0.22 0.18 0.03 | 0.00 |
| GFELNSYGIS | VIYSDGRRTFYTDDVK | GREAGTFDS | GP_Gibbs | 0.35 0.50 0.13 -0.24 -0.16 -0.05 | 0.09 |
| GFSLNEYGIS | VIYSDGRRTFYGDRVK | GRNAGTFDS | GP_Gen | -0.08 0.22 0.33 0.30 -0.15 0.44 | 0.18 |

Where one sequence has several entries in the source, the replicates are listed entry by entry, parted by semicolons.
Empty control strains, which show no peptide, gave a signal in 1% of pairings with all heavy chain designs; the median was 2.08 and 95% of these signals were weaker than 0.84. No background was subtracted.
The parent sequence was in this pool as ten entries: three were never detected, three once, and four in most replicates, with averages from 0.34 to 2.37.
A sequence measured in both rounds can read differently, since the two assays cover different ranges.